The species entered for test [1] is Homo sapiens. Kind of test: Selectivity ratio of Ki for MOR (unknown origin) to Ki for KOR (unknown origin).
The species named for test [2] is Homo sapiens. Kind of test: Selectivity ratio of Ki for DOR (unknown origin) to Ki for KOR (unknown origin).

For the molecule `N=C(N)Nc1ccc2[nH]c3c(c2c1)C[C@@]1(O)[C@H]2Cc4ccc(O)c5c4[C@@]1(CCN2CC1CC1)[C@H]3O5`, the Ratio Ki was 120 in test [1] and 250 in test [2].
